Assay results as given in patent publication US20090275730A1, “Temperature responsive depsipeptide polymer” (priority 2004, published 2009).

Source text: However, the depsipeptide unit is not considered to be a material which exerts temperature responsibility in an aqueous solvent containing no organic solvent. […] Accordingly, the depsipeptide unit -Gly-X2-Cly-Hmb-Pro-(X2=any α-amino acid residue) is thought to be unsuitable as a temperature responsive material and thus has not been investigated intensively.

Substance | temperature responsibility in aqueous solvent | water solubility
Poly(Gly-Val-Gly-Hmb-Ala-Pro) | temperature responsibility thereof was confirmed | 
Poly(Gly^1-Val^2-Gly^3-Hmb^4-Pro^5) [poly(Gly-Val-Gly-Hmb-Pro)] | had temperature responsibility | had water solubility
